# Structures can show the parent of a compound that is named as a salt.
# System: Caco-2 cells
smiles,measurement,value
"NC1CCC(S(=O)(=O)N2C3CCC2CC(NC(=O)c2cc(C4CC4)on2)C3)CC1 [EPZ028862, N-((1R,3R,5S)-8-((1r,4R)-4-aminocyclohexylsulfonyl)-8-aza-bicyclo[3.2.1]octan-3-yl)-5-cyclopropylisoxazole-3-carboxamide hydrochloride]",Caco-2 assay outcome in words,both permeable and an efflux substrate
